Measurements published in ChEMBL document CHEMBL5126566, “Comparison of three zinc binding groups for HDAC inhibitors - A potency, selectivity and enzymatic kinetics study” (Bioorg Med Chem Lett, 2022).

Target: T1, Polyamine deacetylase HDAC10 (Homo sapiens, UniProt Q969S8)
T1 sequence (Q969S8 whole entry): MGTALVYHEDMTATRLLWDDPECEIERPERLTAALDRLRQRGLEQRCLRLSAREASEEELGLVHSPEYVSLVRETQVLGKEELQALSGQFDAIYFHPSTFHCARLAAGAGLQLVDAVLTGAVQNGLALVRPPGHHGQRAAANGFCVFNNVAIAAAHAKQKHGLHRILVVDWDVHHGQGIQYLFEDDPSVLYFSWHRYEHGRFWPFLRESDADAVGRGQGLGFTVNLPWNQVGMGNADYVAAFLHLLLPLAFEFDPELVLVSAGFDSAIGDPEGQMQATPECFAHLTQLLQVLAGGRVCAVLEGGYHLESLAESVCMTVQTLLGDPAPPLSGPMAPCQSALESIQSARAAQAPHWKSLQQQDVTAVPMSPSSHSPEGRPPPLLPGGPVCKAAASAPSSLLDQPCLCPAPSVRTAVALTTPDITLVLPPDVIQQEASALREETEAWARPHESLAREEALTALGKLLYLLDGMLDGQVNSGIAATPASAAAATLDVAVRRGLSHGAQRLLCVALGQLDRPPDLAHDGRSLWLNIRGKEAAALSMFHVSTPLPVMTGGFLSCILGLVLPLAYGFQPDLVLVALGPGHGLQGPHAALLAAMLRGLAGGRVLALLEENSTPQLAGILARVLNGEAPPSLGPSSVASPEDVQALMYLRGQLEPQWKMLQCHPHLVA
Test: Inhibition of HDAC10 (unknown origin)

- pIC50: 6.62
SMILES: O=C(CCCCCCC(=O)Nc1ccccc1)NO [VORINOSTAT]

pIC50: −log10 of the molar value.
